ChEMBL document CHEMBL1177773, “Design, synthesis and anticancer activity of piperazine hydroxamates and their histone deacetylase (HDAC) inhibitory activity” (Bioorg Med Chem Lett, 2010)

Target: T1, Histone deacetylase 8 (Homo sapiens, UniProt Q9BY41)
T1 sequence (Q9BY41 whole entry): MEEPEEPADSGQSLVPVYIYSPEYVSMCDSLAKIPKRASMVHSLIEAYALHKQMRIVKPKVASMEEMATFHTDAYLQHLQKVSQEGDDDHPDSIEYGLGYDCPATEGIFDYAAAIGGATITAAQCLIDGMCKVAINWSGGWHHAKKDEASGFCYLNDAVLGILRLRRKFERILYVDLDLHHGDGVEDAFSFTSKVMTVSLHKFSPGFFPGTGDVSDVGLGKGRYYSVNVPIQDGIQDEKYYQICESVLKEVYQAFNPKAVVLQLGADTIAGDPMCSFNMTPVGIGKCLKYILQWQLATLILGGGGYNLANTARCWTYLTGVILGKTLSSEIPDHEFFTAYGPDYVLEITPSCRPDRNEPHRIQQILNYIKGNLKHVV
Experiment: Inhibition of human HDAC8

O=C(CCCCCCC(=O)Nc1ccccc1)NO [VORINOSTAT]
IC50: 45 nM
